Assay results taken from patent publication US6936584B1, “Mixed amylin activity compounds” (Amylin Pharmaceuticals, Inc., priority 1998, dated 2005).

The chains behind the UniProt entries cited, without tags or fusion partners. Residues count along the entry.
UniProt O60894, 27-148 partner: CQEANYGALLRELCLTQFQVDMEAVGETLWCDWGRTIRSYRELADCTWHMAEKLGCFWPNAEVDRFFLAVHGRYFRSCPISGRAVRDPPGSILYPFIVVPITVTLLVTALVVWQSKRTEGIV
UniProt Q16602, 23-461: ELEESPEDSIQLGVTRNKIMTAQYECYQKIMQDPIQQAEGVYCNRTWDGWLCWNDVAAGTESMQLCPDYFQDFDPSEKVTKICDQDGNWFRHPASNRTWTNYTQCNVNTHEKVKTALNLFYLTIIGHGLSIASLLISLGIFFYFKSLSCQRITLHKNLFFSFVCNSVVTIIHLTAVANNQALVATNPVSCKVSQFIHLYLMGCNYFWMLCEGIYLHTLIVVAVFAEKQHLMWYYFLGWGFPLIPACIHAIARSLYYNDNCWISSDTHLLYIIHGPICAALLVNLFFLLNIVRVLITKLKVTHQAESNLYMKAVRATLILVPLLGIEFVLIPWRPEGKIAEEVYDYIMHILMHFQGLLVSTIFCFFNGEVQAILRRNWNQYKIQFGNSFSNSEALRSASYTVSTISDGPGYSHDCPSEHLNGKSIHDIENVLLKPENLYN

Columns and labels:
[1] = molecular target: T1, CGRP receptors (Homo sapiens, UniProt O60894+Q16602); assay: Binding to membranes from SK-N-MC cells (CGRP receptors), displacement of [125I]human-CGRP; conditions: mean ± SEM (n), read-out: Receptor IC50 in nM [mean ± SEM (n)] CGRP
T1 construct: SK-N-MC cells (ATCC No. HTB-10) were homogenized in 50 mM Hepes buffer; host or cells: SK-N-MC human neuroblastoma cells

[2] = molecular target: T2, calcitonin receptors (Homo sapiens, UniProt P30988); assay: Adenyl cyclase stimulation, cyclic AMP accumulation in MCF7-7 cells; assay type: cell-based; conditions: read-out: EC50 cyclic AMP accumulation / adenylyl cyclase activity
T2 sequence (P30988 25-474): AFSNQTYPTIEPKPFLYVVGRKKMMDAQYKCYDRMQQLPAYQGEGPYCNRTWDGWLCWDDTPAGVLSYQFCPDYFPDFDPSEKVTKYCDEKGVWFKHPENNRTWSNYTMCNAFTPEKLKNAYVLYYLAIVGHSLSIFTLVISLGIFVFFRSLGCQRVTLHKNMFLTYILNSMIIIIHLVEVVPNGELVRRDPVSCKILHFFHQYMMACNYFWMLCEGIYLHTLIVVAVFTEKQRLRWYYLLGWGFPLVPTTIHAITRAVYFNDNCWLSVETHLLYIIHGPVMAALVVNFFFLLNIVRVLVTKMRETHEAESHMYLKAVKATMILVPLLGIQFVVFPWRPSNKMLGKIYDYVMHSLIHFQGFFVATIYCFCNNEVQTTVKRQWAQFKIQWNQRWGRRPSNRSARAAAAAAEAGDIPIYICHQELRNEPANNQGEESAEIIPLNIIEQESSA

[3] = molecular target: T2, calcitonin receptors; assay: Binding to membranes from T47D cells (calcitonin receptors), displacement of [125I]salmon calcitonin; design: Membranes were prepared from confluent cultures of T47D cells; host or cells: T47D human breast carcinoma cells; conditions: mean ± SEM (n), read-out: Receptor IC50 in nM [mean ± SEM (n)] Calcitonin
[4] = molecular target: T3, amylin receptors (Rattus norvegicus, UniProt P32214); assay: Binding to rat nucleus accumbens membranes (amylin receptors), displacement of 125I-BH-rat amylin; conditions: read-out: Receptor IC50 in nM [mean ± SEM (n)] Amylin
T3 sequence (P32214 25-516): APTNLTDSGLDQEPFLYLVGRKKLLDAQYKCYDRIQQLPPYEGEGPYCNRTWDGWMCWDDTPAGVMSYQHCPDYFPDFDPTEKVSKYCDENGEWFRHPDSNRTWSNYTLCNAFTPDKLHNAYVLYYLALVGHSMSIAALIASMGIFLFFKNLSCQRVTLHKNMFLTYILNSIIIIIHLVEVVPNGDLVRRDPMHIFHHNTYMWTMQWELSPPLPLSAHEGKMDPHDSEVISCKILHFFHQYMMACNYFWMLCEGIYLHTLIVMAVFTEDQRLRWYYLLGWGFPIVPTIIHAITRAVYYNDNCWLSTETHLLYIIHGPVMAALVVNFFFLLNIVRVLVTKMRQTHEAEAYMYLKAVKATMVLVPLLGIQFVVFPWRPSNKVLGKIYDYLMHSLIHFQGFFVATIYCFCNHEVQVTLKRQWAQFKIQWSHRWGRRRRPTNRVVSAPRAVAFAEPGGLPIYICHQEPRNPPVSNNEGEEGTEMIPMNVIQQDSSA

[5] = molecular target: T2, calcitonin receptors; assay: Adenyl cyclase stimulation, cyclic AMP accumulation in T47D cells; assay type: cell-based

Substance	IC50 [1] [nM]	EC50 [2] [nM]	IC50 [3] [nM]	IC50 [4] [nM]	EC50 [5] [nM]
4-methylpentanoyl-Ser-Thr-Ala-Val-Leu-Aib-Lys(For)-Leu-Ser-Gln-Glu-Leu-Aib-Lys(For)-Leu-Gln-Thr-Tyr-Pro-Arg-Thr-Asn-Thr-Gly-Ser-Gly-Thr-Pro [Compound 2]	> 10000	1.6	0.37		
Leu-Ser-Thr-Ala-Val-Leu-Gly-Arg-Leu-Ser-Gln-Glu-Leu-His-Arg-Leu-Gln-Thr-Tyr-Pro-Arg-Thr-Asn-Thr-Gly-Ser-Asn-Thr-Tyr [Compound 4]	92 ± 13	3.5	0.13	0.066 ± 0.008	
Ac-Val-Leu-Aib-Lys(For)-Leu-Ser-Gln-Glu-Leu-Aib-Lys(For)-Leu-Gln-Thr-Tyr-Pro-Arg-Thr-Asn-Thr-Gly-Ser-Asn-Thr-Tyr [Compound 9]	> 10000		24	7.6	
Leu-Ser-Thr-Ser-Val-Leu-Gly-Arg-Leu-Ser-Gln-Glu-Leu-His-Arg-Leu-Gln-Thr-Tyr-Pro-Arg-Thr-Asn-Thr-Gly-Ser-Asn-Thr-Tyr [Compound 5]	44 ± 12		0.15	0.092 ± 0.011	
human calcitonin [reference compound]		0.45			3.1
Ac-Leu-Ser-Thr-Cys-Val-Leu-Gly-Arg-Leu-Ser-Gln-Glu-Leu-His-Arg-Leu-Gln-Thr-Tyr-Pro-Arg-Thr-Asn-Thr-Gly-Ser-Asn-Thr-Tyr [Compound 7]	1400				
